Molecules are shown by their SMILES.

By UniProt entry, the sequences of proteins in these tests, tags left out. Residues count along the entry.
UniProt P30405, 30-207 limits assumed: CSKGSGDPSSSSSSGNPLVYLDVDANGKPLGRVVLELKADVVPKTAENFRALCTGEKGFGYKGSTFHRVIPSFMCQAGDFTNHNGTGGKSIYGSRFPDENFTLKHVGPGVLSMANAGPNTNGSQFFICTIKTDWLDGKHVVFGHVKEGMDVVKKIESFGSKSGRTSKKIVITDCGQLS

What all share (assay type): biochemical
One assay deals with CypD (Homo sapiens, UniProt P30405). Kind of assay: CypD PPIase activity, chymotrypsin-coupled assay. The note with it: read-out: CypD PPIase activity IC50; Table 1.
The test system of assay [1] is isolated mouse liver mitochondria. The assay is described as follows: Calcium retention capacity (CRC) assay in isolated liver mitochondria.
Assay [2] has the same test system. Kind of assay: Ca2+-induced mitochondrial swelling assay. To be noted: read-out: Mitochondrial swelling IC50, energised isolated mouse liver mitochondria.

Consider `CSc1ccccc1C1CCCN1C(=O)C(NC(=O)NCc1ccc(NCC2CCCNC2)cc1)c1ccccc1` (stereo not shown), for which the results for the 50% inhibitory concentration (IC50) (on CypD; in assay [2]) were 260 nM and 2560 nM, respectively. The “maximal mitochondrial CRC” value in assay [1] (compound at 100 μM (Fig. 1C), basal 160 ± 8) was 473 ± 38 nmol Ca2+/mg of mitochondrial. In addition, the concentration for a half-maximal effect (EC50) (usually the concentration giving half of the maximal effect) in assay [1] (read-out: Calcium retention capacity EC50, isolated mouse liver mitochondria) turned out to be 10200 nM.
As for `COc1ccc(Br)cc1C(NC(=O)NCc1ccc(N)cn1)C(=O)N1CCCC1c1ccccc1SC` (stereo not shown), the concentration for half-maximal inhibition (IC50) – broadly, the concentration that gives 50% inhibition – at CypD was 500 nM.
Take `COc1ccc(OC)c(C(NC(=O)NCc2ccc(N)cc2)C(=O)N2CCCC2c2ccccc2SC)c1` (stereo not shown): the IC50 at CypD came to 320 nM.
On to `CSc1ccccc1C1CCCN1C(=O)C(NC(=O)NC[C@H]1CC[C@H](N)CC1)c1ccccc1` (stereo partly shown), for which, on CypD, the concentration for half-maximal inhibition (IC50) is 150 nM.
Same read-out and setting: under `CSc1ccccc1C1CCCN1C(=O)C(NC(=O)NCc1cccc2c1CCCN2C(C)=O)c1ccccc1` (stereo not shown) stands 280 nM; under `COc1ccc(OC)c(C(NC(=O)NCc2ccc3c(c2)CCCN3)C(=O)N2CCCC2c2ccccc2SC)c1` (stereo not shown), 650 nM.
Same read-out and setting: under `CSc1ccccc1C1CCCN1C(=O)C(NC(=O)NCc1ccc(NCc2ccccc2F)cc1)c1ccccc1` (stereo not shown) stands 160 nM.
The same measure, in the same setting: under `CSc1ccccc1C1CCCN1C(=O)C(NC(=O)NCc1cc(F)cc2c1OCCO2)c1ccccc1` (stereo not shown) stands 480 nM; under `CSc1ccccc1C1CCCN1C(=O)C(NC(=O)NCc1cccc2c1OC(F)(F)O2)c1ccccc1` (stereo not shown), 720 nM.
Regarding `CSc1ccccc1C1CCCN1C(=O)C(NC(=O)NCc1ccc(O)c2ncccc12)c1ccccc1` (stereo not shown), the IC50 on CypD was determined as 630 nM.
